The numbers were not newly measured in PMC5845537 (Frontiers in Pharmacology, 2018), which cites them from elsewhere.

The subject of this data set is SERT. The following applies: ref Pehrson et al., 2015; cited from earlier work.

As for `Fc1ccc([C@@H]2CCNC[C@H]2COc2ccc3c(c2)OCO3)cc1` [paroxetine], the “SERT occupancy ED80” value was around 0.2 mg/kg.
